According to PubChem BioAssay AID904 (National Center for Advancing Translational Sciences (NCATS), 2007):
The entries are a selection whose mix differs from that of the whole data set. Results filed as inconclusive are left out. Active and inactive are the calls of the source. Calls come from the whole dose curve; as a rule, active = well fitted cell-killing curve with a large enough effect; inconclusive = small, poorly fitted or top-dose-only effect; inactive = no such curve, though single readings can be large or run the other way.

Experiment: qHTS Screen for Compounds that Selectively Target Cancer Cells with p53 Mutations: Cytotoxicity of p53 Null Cells at the Nonpermissive Temperature;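 note: 0% = DMSO only and -100% = full killing by 100 µM tamoxifen; nearly all actives have a fitted effect of over 50% in size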
Conditions: H1299 p53-null (neo) cells, 39C, ATPlite viability, 24 h; at 46.1 µM (top of the series)
Source text: NIH Chemical Genomics Center [NCGC] NIH Molecular Libraries Screening Centers Network [MLSCN] MLSCN Grant: 1 X01 MH079844-01 Assay Submitter (PI): Dr. SUN, YI, University of Michigan NCGC Assay Overview: Synthetic Lethal Screen for Compounds to Kill Cancer Cells with p53 Mutation. Tumor suppressor gene p53 serves as a major cellular barrier against tumorigenesis. […] The goal of this screening is to identify small molecule probes that selectively kill cancer cells with mutations in p53. This screening was carried out using two lines of H1299 lung cancer cells. The H1299-p53 A138V line express a temperature sensitive p53 mutant (p53ts) in which the mutant p53 protein (A138V) is in the mutant confirmation when grown at 39C (the nonpermissive temperature) and in the wild type conformation when grown at 32C (the permissive temperature). A H1299-neo line (p53 null) grown at both 39C and 32C were used as counter-screens to filter out false positive associated with temperature shifting. The small molecular compounds that selectively target mutant p53-containing cancer cells were selected as candidate probes for further study. A cytotoxicity assay based on the measurement of ATP contents in cells was used in this screen. Concentration-responses of all the compounds in the library collection were determined in qHTS using the cell lines and temperature conditions as above.
NCGC Assay Protocol Summary: Both the H1299-p53A138V and H1299-neo cell lines were provided by Dr.Yi Sun, a PI at the University Michigan. The cells were maintained and cultured at 37C. The resuspended frozen cells were used to plate the cells in the 1536-well assay plates at a density of 600 cells per well in 5 ul medium. The assay plates with the cells were incubated at 37C for 16 to 30 hours before the experiments. The library compounds in DMSO solution were added to the cells in assay plates and incubated 24 hours at 39C (for mutant p53 conformation) or 32C (for normal p53 conformation as control). An ATP_lite assay kit (PerkinElmer) was used to determine the cell viability. Tomaxifen (100uM) was used as the positive control for cell killing. Data were normalized to the controls for basal activity (DMSO only) and 100% killing (100uM tamoxifen). AC50 values were determined from concentration-response data modeled with the standard Hill equation. P53 assay protocol: 1. Reagent; 5 uL H1299-p53A138V or H1299-neo cell cells/well 2. Time; overnight; 37C incubation 3. Compounds; 23 nL; 5.9 nM to 46 uM 4. Controls; 23 nL; Tamoxifen 100 uM 5. Time; 24 hr; 39C incubation 6. Reagent; 3 uL; ATP_Lite reagent 7. Time; 20 min; Room Temperature 8. Detection; Luminescence; Viewlux plate reader Keywords: p53, synthetic lethal, cancer, cell viability, cytotoxicity, H1299 cell line, luminescence, MLSMR, MLSCN, NIH Roadmap, qHTS, NCGC

Row | Compound | activity, negative = cell killing
1 | CCCOc1cccc(C(=O)NCC2(N3CCOCC3)CCCCC2)c1 | inactive: -4.35%
2 | CCOc1ccc(C(=O)NCC2(N3CCOCC3)CCCCC2)cc1 | inactive: -13.9%
3 | O=C(NCC1(N2CCOCC2)CCCCC1)c1ccccc1Br | inactive: -5.33%
4 | CCCCOc1ccccc1C(=O)NCC1(N2CCOCC2)CCCCC1 | inactive: -8.31%
5 | O=C(NCC1(N2CCOCC2)CCCCC1)c1ccc(Cl)cc1 | inactive: 8.33%
6 | COc1ccccc1C(=O)NCC1(N2CCOCC2)CCCCC1 | inactive: 21.8%
7 | Cc1ccccc1C(=O)NCC1(N(C)C)CCCCC1 | inactive: -24.8%
8 | CC(C)(C)c1ccc(C(=O)NCC2(N3CCOCC3)CCCCC2)cc1 | inactive: 15.3%
9 | CN(C)C1(CNC(=O)c2ccc(C(C)(C)C)cc2)CCCCC1 | inactive: -27.1%
10 | COc1cc(C(=O)NCC2(N3CCOCC3)CCCCC2)cc(OC)c1OC | inactive: -17.9%
11 | O=C(NCC1(N2CCOCC2)CCCCC1)c1ccccc1 | inactive: 15.4%
12 | O=C(NCC1(N2CCOCC2)CCCCC1)c1ccccc1[N+](=O)[O-] | inactive: -14.3%
13 | O=C(NCC1(N2CCOCC2)CCCCC1)c1ccc([N+](=O)[O-])cc1 | inactive: 9.7%
